Paper PMC8292404, “Phase 1b/2 trial of tepotinib in sorafenib pretreated advanced hepatocellular carcinoma with MET overexpression” (British Journal of Cancer, 2021)

Tested on: patients with sorafenib pretreated advanced hepatocellular carcinoma (aHCC)
Test: Phase 1b dose escalation ('3 + 3'): DLTs and adverse events
Assay type: in vivo
Conditions: N = 17
Experimental: Additional patients were enrolled at the RP2D.
The primary endpoint in Phase 1b was incidence of dose-limiting toxicities (DLTs) during Cycle 1. Details of DLTs are defined in Supplementary Table 3. Pharmacokinetics (PK) endpoints, including Cmax, and area under the concentration–time curve over the dosing interval at steady state (AUCτ,ss), were evaluated at Cycle 1, Day 15 as a secondary endpoint in Phase 1b. Selected efficacy measures were evaluated as secondary endpoints in Phase 1b.
In Phase 1b, DLTs were assessed during Cycle 1 in all patients who received ≥80% of the planned cumulative dose of tepotinib and patients who stopped treatment due to a DLT. Patients who were replaced during Cycle 1 were excluded from the analysis set.

With `CN1CCC(COc2cnc(-c3cccc(Cn4nc(-c5cccc(C#N)c5)ccc4=O)c3)nc2)CC1` [tepotinib] as the molecule, how does the “patients with an AE of any cause” value read?
Its value is 94.1%.
